Laboratory results taken from article PMC5038948 (PLoS ONE, 2016).

Chains of the proteins cited; added tags and fusions are not shown. Residues count along the entry.
UniProt P08246, 30-267: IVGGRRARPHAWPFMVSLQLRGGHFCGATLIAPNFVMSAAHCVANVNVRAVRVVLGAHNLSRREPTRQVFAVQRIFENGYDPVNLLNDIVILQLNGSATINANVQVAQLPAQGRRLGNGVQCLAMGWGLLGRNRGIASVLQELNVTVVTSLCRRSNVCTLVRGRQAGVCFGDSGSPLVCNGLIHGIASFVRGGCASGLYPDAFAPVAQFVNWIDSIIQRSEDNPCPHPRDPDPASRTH

Assays:
Experiment in all cases: ELISA; CAP37, neutrophil elastase, cathepsin G or Aβ1-42 (0.5 μg/well) or BSA (1000 μg/well) coated on Maxisorp plates in PBS pH 7.4; RAGE Fc chimera 0–3.3 nM in PBST with 0.1% BSA, 37°C, 70 min; bound RAGE detected with goat anti-RAGE; BSA subtracted as background for KD
Settings in all cases: both partners purified
[1] = target: T1, cationic antimicrobial protein of 37kDa (CAP37) (human, UniProt P20160 27-251)
T1 construct: cationic antimicrobial protein of 37kDa (CAP37, encoded by AZU1), human, purified from neutrophils, >95% pure by SDS-PAGE; also called AZU1; source: purified from human neutrophils; bought: Athens Research & Technology
T1 sequence (looked up): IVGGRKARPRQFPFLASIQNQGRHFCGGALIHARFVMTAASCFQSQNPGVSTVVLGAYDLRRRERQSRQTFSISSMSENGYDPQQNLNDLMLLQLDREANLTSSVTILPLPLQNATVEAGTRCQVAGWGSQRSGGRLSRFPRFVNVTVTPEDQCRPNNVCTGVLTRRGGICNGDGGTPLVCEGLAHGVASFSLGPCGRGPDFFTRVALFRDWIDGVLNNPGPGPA

cathepsin G = target: T2, cathepsin G (human, UniProt P08311 21-244)
T2 construct: cathepsin G (CTSG), human, purified from neutrophils, >95% pure by SDS-PAGE; also called CG; CTSG; source: purified from human neutrophils; bought: Athens Research & Technology
T2 sequence (looked up): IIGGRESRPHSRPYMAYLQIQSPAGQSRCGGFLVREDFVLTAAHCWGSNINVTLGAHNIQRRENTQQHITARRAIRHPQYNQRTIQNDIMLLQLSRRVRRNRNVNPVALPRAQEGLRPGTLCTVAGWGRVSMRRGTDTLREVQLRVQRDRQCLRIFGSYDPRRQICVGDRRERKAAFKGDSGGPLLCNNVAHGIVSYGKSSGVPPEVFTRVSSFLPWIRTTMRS

neutrophil elastase = neutrophil elastase (human, UniProt P08246, native N-glycosylated, disulfide-bonded active enzyme from human neutrophils. Limits are not printed: the signal and activation dipeptide are removed (starts at 30), and the C-terminal propeptide is t)

- Log binding at 0.21 nM RAGE [1]: -0.174 log OD
- Log binding at 0.42 nM RAGE [1]: -0.012 log OD
- Log binding at 0.83 nM RAGE [1]: 0.112 log OD
- Log binding at 1.67 nM RAGE [1]: 0.228 log OD
- Log binding at 3.33 nM RAGE [1]: 0.325 log OD
- Log binding at 0.21 nM RAGE (cathepsin G): -0.264 log OD
- Log binding at 0.42 nM RAGE (cathepsin G): -0.078 log OD
- Log binding at 0.83 nM RAGE (cathepsin G): 0.101 log OD
- Log binding at 1.67 nM RAGE (cathepsin G): 0.166 log OD
- Log binding at 3.33 nM RAGE (cathepsin G): 0.192 log OD
- Log binding at 1.67 nM RAGE (neutrophil elastase): -0.274 log OD
- Log binding at 3.33 nM RAGE (neutrophil elastase): -0.121 log OD
B1: Recombinant human RAGE Fc chimera (Fc fusion, UniProt Q15109 23-342, looked up)
chain: AQNITARIGEPLVLKCKGAPKKPPQRLEWKLNTGRTEAWKVLSPQGGGPWDSVARVLPNGSLFLPAVGIQDEGIFRCQAMNRNGKETKSNYRVRVYQIPGKPEIVDSASELTAGVPNKVGTCVSEGSYPAGTLSWHLDGKPLVPNEKGVSVKEQTRRHPETGLFTLQSELMVTPARGGDPRPTFSCSFSPGLPRHRALRTAPIQPRVWEPVPLEEVQLVVEPEGGAVAPGGTVTLTCEVPAQPSPQIHWMKDGVPLPLPPSPVLILPEIGPQDQGTYSCVATHSSHGPQESRAVSISIIEPGEEGPTAGSVGGSGLGTLA
notes: receptor for advanced glycation end products (RAGE), human, recombinant, fused to Fc; No catalogue number printed; also called receptor for advanced glycation end products; AGER; source: bought: R&D Systems
